Key:
[1] = target: T1, receptor tyrosine kinase DDR1 (Homo sapiens, UniProt Q08345); test: kinobeads competition binding assay in K562 cell lysate (iTRAQ mass spectrometry, Western blot); settings: at 1 µM
T1 construct: endogenous in cells; host or cells: K562 cells / K562 cell lysate

Protein sequences, listed by entry. Tags and fused reporters are not part of them. Residues count along the entry.
UniProt Q08345, 19-913: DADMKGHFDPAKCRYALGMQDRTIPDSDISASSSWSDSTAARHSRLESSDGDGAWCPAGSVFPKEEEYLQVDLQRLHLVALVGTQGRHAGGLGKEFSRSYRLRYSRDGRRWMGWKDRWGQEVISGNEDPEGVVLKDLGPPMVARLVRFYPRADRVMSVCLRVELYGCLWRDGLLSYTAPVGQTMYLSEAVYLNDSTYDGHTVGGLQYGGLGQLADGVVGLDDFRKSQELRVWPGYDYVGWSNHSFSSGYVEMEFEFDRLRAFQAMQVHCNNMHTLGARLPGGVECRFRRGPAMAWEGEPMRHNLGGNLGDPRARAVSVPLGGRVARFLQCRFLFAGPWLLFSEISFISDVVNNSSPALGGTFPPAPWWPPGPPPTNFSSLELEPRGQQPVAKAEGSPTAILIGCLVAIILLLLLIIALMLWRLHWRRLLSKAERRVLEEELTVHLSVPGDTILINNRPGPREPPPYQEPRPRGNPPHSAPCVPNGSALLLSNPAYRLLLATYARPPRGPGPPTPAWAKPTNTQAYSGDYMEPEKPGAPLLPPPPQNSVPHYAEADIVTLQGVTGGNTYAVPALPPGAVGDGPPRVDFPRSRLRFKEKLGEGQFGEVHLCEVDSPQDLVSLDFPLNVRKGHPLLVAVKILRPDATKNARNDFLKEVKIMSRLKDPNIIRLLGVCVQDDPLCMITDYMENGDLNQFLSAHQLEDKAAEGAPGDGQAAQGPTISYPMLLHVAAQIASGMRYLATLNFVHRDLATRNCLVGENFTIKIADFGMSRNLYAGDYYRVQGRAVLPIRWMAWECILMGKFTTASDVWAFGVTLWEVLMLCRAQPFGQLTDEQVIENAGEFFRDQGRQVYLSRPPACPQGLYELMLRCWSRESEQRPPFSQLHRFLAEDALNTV
UniProt P42684, whole entry: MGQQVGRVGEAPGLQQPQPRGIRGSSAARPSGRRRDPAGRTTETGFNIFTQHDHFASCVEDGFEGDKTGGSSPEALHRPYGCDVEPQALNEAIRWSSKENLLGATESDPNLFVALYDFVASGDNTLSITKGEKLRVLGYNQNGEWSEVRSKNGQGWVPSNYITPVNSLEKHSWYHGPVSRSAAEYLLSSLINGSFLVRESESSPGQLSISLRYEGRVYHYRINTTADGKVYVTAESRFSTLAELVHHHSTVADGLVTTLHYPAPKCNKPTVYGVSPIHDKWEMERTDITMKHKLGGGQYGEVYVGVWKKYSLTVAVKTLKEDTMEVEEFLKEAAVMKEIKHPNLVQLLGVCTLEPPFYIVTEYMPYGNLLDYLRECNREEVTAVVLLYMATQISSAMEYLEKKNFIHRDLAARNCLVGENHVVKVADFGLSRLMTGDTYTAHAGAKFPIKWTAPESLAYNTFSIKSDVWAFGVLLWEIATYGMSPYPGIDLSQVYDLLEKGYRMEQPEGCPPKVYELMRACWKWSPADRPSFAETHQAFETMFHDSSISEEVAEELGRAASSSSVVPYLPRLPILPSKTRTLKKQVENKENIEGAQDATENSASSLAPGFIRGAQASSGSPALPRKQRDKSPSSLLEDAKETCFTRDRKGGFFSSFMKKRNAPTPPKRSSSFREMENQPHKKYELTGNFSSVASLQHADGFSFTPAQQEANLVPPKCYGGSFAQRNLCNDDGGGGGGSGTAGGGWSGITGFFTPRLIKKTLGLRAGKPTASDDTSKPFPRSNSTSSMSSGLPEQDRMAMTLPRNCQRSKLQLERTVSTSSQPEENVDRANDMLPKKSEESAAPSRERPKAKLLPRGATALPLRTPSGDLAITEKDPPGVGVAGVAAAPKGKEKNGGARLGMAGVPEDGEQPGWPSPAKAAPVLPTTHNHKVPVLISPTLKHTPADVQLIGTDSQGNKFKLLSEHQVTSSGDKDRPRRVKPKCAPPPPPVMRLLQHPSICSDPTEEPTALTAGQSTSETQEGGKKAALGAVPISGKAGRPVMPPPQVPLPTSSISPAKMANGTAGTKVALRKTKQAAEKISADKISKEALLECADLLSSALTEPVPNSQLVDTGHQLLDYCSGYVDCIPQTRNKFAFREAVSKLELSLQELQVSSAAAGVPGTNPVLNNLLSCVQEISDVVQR

[2] = target: ABL family kinase Arg (Homo sapiens, UniProt P42684); settings: at 1 µM, K562 lysate

Cc1nc(Nc2ncc(C(=O)Nc3c(C)cccc3Cl)s2)cc(N2CCN(CCO)CC2)n1 [dasatinib]
competition [1]: > 50% | competition [2]: > 50%
